Source: US20150004189A1

Key:
[1] = target: HLA DQ molecule DQB1*0502 (human); experiment: inhibition of radiolabeled peptide binding to purified HLA class II
[2] = target: HLA-DQ molecule DQB1*0201 (human); experiment: inhibition of radiolabeled peptide binding to purified HLA-DQ
[3] = target: HLA DQ molecule DQB1*0202 (human); experiment: inhibition of radiolabeled peptide binding to purified HLA class II
[4] = target: HLA DQ molecule DQB1*0602 (human); experiment: as above

Row | Substance | IC50 [1] [µM] | IC50 [2] [µM] | IC50 [3] [µM] | IC50 [4] [µM]
1 | Asp f 17 (91-105) peptide …, Peptide ID 3324.0212 | 1.38 |  |  | 
2 | Lol p 1 (176-190) peptide … |  | 1.41 |  | 
3 | Pen ch 18 (226-240) peptide …, Peptide ID 3324.1330 | 10.1 |  | 9.49 | 1.58
